Amino acid sequences for entries named in this document (tags omitted).
UniProt P31645, whole entry: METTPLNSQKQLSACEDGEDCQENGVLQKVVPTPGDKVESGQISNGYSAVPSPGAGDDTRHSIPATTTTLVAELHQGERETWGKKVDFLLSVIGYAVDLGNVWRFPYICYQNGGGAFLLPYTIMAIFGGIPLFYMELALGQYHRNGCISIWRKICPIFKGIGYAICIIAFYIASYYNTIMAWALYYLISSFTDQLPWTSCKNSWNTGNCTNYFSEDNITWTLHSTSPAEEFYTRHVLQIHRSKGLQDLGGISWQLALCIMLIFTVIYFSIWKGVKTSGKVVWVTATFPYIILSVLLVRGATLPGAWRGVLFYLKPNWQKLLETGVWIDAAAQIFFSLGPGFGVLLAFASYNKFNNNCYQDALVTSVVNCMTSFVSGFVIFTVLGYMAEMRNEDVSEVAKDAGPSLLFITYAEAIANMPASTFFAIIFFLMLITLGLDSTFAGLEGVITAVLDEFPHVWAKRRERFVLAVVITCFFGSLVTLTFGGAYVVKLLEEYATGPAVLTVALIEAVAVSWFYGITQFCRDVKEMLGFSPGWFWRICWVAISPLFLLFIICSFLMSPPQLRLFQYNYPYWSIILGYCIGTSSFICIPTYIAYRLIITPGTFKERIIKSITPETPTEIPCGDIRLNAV

According to article PMC2895766 (2010):

Biological target: human 5HT transporters [(h)SERT] (Homo sapiens, UniProt P31645)
Assay: Inhibition of [3H]serotonin uptake in HEK293 cells expressing hSERT

C[C@@H]1NC(C)(C)CO[C@@]1(O)c1cccc(Cl)c1 [(2S,3S)-4a, (2S,3S)-2-(3-Chlorophenyl)-3,5,5-trimethylmorpholin-2-ol]
monoamine uptake inhibition IC50 [3H]5HT: inactive
